Measurements: PMC9808001
pKd: −log10 of the molar value.

The chains behind the UniProt entries cited, without tags or fusion partners. Where a name states a change or a piece, a line headed by the entry shows the natural chain unless it says otherwise. Residues count along the entry.
UniProt Q5JSH3, 340-389: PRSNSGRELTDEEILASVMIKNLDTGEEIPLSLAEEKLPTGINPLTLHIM
UniProt P62491: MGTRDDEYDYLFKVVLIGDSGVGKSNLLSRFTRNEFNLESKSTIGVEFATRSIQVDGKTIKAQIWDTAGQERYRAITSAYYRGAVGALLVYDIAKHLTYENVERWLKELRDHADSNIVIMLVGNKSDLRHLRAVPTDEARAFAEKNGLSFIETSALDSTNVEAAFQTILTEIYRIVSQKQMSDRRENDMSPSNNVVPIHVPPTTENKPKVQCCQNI

Target: Strep-His WDR44 (340–389) (human) (UniProt Q5JSH3)
Experiment: BLI; His-WDR44 immobilised on anti-penta-His tips, dose response of Rab11 (10–1000 nM), triplicate; KD estimated from the normalised response by one-site binding nonlinear regression; 30 °C; 20 mM Hepes pH 7.5, 150 mM NaCl, 1 mM MgCl2, bovine serum albumin, 0.002% Tween-20

- pKd: 7.12
Substance: Rab11a (GTPγS-loaded) (from UniProt P62491 1-216) (natural protein)
